The structures appear in SMILES notation. The list shows a part of the results, in another mix than the full data. Active and inactive are the calls of the source.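 Rule for the calls: active = calcium response below the same-plate mean of wells given acetylcholine alone at its 80%-effect dose, minus 3 SD; inactive = the rest.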

By UniProt entry, the sequences of proteins in these tests, tags left out. Where a name states a change or a piece, a line headed by the entry shows the natural chain unless it says otherwise.
UniProt P08482: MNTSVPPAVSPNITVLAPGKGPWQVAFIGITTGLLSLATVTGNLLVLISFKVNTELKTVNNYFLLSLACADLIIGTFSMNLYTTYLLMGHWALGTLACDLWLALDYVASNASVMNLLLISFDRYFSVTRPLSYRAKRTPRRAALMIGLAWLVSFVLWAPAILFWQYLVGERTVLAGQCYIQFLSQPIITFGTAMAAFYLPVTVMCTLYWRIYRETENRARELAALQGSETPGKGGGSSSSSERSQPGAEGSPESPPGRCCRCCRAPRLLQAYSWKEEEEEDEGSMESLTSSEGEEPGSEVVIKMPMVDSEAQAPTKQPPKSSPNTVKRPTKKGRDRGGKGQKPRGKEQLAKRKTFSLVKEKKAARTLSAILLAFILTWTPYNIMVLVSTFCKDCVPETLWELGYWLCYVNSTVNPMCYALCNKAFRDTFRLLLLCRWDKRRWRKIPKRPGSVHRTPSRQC

The target of this assay is Muscarinic acetylcholine receptor M1 (Rattus norvegicus) (UniProt P08482). Nature of the assay: blockers of ACh-evoked M1 calcium signal – CHO cells, Fluo-4 calcium, duplicate, confirmation (AID 677).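 Note: raw fluorescence intensity difference in arbitrary instrument units and not normalized.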 To be noted: ACh EC80 antagonism, at 10 µM, stronger effect = lower value.
On to `Cc1ccc(OCC(=O)OC2CN3CCC2CC3)cc1` (stereo unspecified), for which the calcium response (max-min fluorescence) is active: 384.

These data come from PubChem BioAssay AID677 (Vanderbilt High Throughput Screening Facility, 2007).
